Experimental data taken from publication PMC6471528, “Biological Evaluation and Molecular Docking Studies of Dimethylpyridine Derivatives” (Molecules, 2019).

System: NHDF (normal human dermal fibroblasts)
Experiment: Sulforhodamine B cytotoxicity assay, NHDF
Format: cell-based
Settings: SRB assay, 48 h, mean (SD), n = 3
From the text: The sulforhodamine B assay was used to estimate the cytotoxic properties of the compounds. The cytotoxic activity of dimethylpyridine derivatives was studied against human cancer cell lines: A549 (pulmonary basal cell alveolar adenocarcinoma) and LoVo (colon adenocarcinoma). Additionally, the effect of compounds on NHDF (normal human dermal fibroblasts) and normal cell line V79 (fibroblast from Chinese hamster lung) was examined.
Normal human dermal fibroblasts (NHDF) from adult donors were purchased from Lonza (Verviers, Belgium). Normal cell line V79 (fibroblast from Chinese hamster lung) and human cancer cell lines, A549 (pulmonary basal cell alveolar adenocarcinoma) and LoVo (colon adenocarcinoma) were obtained from the European Collection of Authenticated Cell Cultures (ECACC).
Cells were grown in the culture media recommended by the cell line supplier. Before the test, adherent cells were detached with the trypsin EDTA solution, and FBS-containing medium was used to neutralize the effects of the trypsin/EDTA solution. After that, cells were spun down, counted, stained with a 0.4% solution of trypan blue and inspected under a microscope for cell viability. Then, cells were placed on 96-well plastic culture plates (2 × 10^3 cells/well) and incubated at 37 °C in a CO2-incubator for 24 h. […] Finally, cells were harvested and intended for the cell proliferation test. […]

CN1C(C(=O)Nc2ccccn2)=C(O)c2ccccc2S1(=O)=O [Piroxicam, reference compound]
IC50: 170 µM
